Screens as filed in PubChem.
The entries come from a sample that favours hits as a whole.
HCMV NEC inh: disrupts HCMV UL50-UL53 complex binding | 0.15% of 190,000 active | HTRF UL50-UL53 interaction, normalized percent inhibition | inhibition, % (test concentration not listed) | AID 1918969; in the data active means inhibition above about 27%, passing the limit was not always enough
GIV Gai3 FP: inhibitors of GIV GBA-motif binding to rat Galpha-i3; P08753; Galpha-i3/FITC-GIV peptide fluorescence polarization, 90 min; active compounds read low; scaled: aluminum fluoride 0%, vehicle 100%; percent of control (FP), % (concentration not given with the values); 210,000 compounds, 0.42% hits; AID 1224905;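 active means replicate mean at 85% of control or lower, very high polarization wells dropped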;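 further: wells of about 15 µL received 100 nL stock; the first replicate is given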
GIV Gai FP conf: GIV-Galpha-i3 inhibition, FP confirmation; FITC-GIV peptide binding to Galphai3, fluorescence polarization; hits give low values; shares compounds with GIV Gai3 FP; fluorescence polarization, mP at 100 µM; 38% of 580 active;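 active means inhibition score of 15 or more, meaning 100 minus mean polarization as percent of control over three replicates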;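 further: lower mP means peptide displaced from Galphai3 so more inhibition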
GIV Gai AS conf: confirmation of inhibitors of GIV binding to human Galpha-i3; AlphaScreen Galphai3-GIV binding, purified proteins, 90 min; hits give low values; AlphaScreen counts at 100 µM; 39% of 580 active; shares compounds with GIV Gai3 FP;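 active means inhibition score at or above a set limit, where the score is 100 minus the three-replicate mean percent of control signal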
Starred values were filed as active, the others as inactive; · = not tested or not shown.

[1] CC1=C(C#N)C(=O)N(C)C(=O)/C1=C/c1ccc(-c2cccc(Cl)c2C)o1
[2] CC1=C(C#N)C(=O)N(C)C(=O)/C1=C/c1ccc(-c2ccccc2C(=O)O)o1
[3] C=CCN1C(=O)C(C#N)=C(C)/C(=C\c2ccc(-c3cccc(C(=O)O)c3)o2)C1=O
[4] CC1=C(C#N)C(=O)N(CCc2ccccc2)C(=O)/C1=C\c1ccc(-c2cccc(Cl)c2)o1
[5] O=C(Nc1ccccc1Cl)N1CCc2ccccc2C1
[6] O=C1OC(c2ccccc2)OC(=O)C1=Cc1ccc(-c2cccc(Br)c2)o1 (stereo not drawn)
[7] CC1=NN(c2cccc(Br)c2)C(=O)/C1=C\c1ccc(-c2cccc([N+](=O)[O-])c2)o1
[8] O=c1c2c3c(sc2n2cnnc2n1Cc1ccccc1)CCCC3

Screen / compound no. | 1 | 2 | 3 | 4 | 5 | 6 | 7 | 8
HCMV NEC inh | -52 | -28 | -6 | -20 | -2 | · | -19 | 2
GIV Gai3 FP | 106 | 84* | 83* | 101 | 99 | 64* | 100 | 109
GIV Gai FP conf | · | 68 | 79 | · | · | 63 | · | ·
GIV Gai AS conf | · | 2072* | 2591* | · | · | 17821* | · | ·

Of the compounds above, these have a Cl atom.
[1] CC1=C(C#N)C(=O)N(C)C(=O)/C1=C/c1ccc(-c2cccc(Cl)c2C)o1
[4] CC1=C(C#N)C(=O)N(CCc2ccccc2)C(=O)/C1=C\c1ccc(-c2cccc(Cl)c2)o1
[5] O=C(Nc1ccccc1Cl)N1CCc2ccccc2C1

Screen / compound no. | 1 | 4 | 5
HCMV NEC inh | -52 | -20 | -2
GIV Gai3 FP | 106 | 101 | 99
GIV Gai FP conf | · | · | ·
GIV Gai AS conf | · | · | ·

Next part:
[9] N#C/C(=C/c1ccc(-c2cccc(C(F)(F)F)c2)o1)c1ccc(C(=O)O)cc1
[10] O=C(O)C(=Cc1ccc(-c2cccc(C(F)(F)F)c2)o1)C(=O)O
[11] COC(=O)c1cc2sc(Cl)cc2n1CC(=O)Nc1ccc(C)cc1C
[12] COc1ccc(S(=O)(=O)N2CCCC2C(=O)N2CCc3cc(OC)c(OC)cc3C2)cc1 (stereo not drawn)
[13] CC(C)(C)c1ccc(C2CC(=O)C(C=NCCN3CCNCC3)=C(O)C2)cc1 (stereo not drawn)
[14] CCN(CC)c1ccc2c(c1)OC(N)=C(C#N)C2c1cccc(F)c1 (stereo not drawn)
[15] N#CC1=C(N)Oc2cc(O)ccc2C1c1ccccc1 (stereo not drawn)
[16] CC(C)(C)C(=O)NC1CCNCC1

Screen / compound no. | 9 | 10 | 11 | 12 | 13 | 14 | 15 | 16
HCMV NEC inh | -52 | -16 | -5 | · | -35 | -18 | -10 | 5
GIV Gai3 FP | 111 | 84* | 97 | 105 | 102 | 108 | 104 | 104
GIV Gai FP conf | · | 67 | · | · | · | 115 | · | ·
GIV Gai AS conf | · | 15696* | · | · | · | 21637 | · | ·

[17] O=C1c2ccccc2C(=O)C1C(c1ccccc1)C1C(=O)c2ccccc2C1=O
[18] O=C(c1ccccc1)C1C(=O)c2ccccc2C1=O
[19] Cc1ccc(-c2ccc(SCc3nc(-c4ccc(C)cc4)no3)nn2)cc1
[20] CCn1cc(S(=O)(=O)N2C[C@H]3CN(S(=O)(=O)c4cccc(F)c4)C[C@@H](C2)O3)cn1
[21] COc1ccc(-c2nnc(SCC(=O)Nc3ccc(C)cc3)nc2-c2ccc(OC)cc2)cc1
[22] COc1ccc(-c2nnc(SCC(=O)Nc3cccc(C)c3C)nc2-c2ccc(OC)cc2)cc1
[23] COC(=O)c1ccc(CNC(=O)C(NC(C)=O)C(C)C)cc1 (stereo not drawn)
[24] CC(=O)NC1=NC(=O)/C(=C\c2cccs2)N1C

Screen / compound no. | 17 | 18 | 19 | 20 | 21 | 22 | 23 | 24
HCMV NEC inh | · | -38 | -14 | · | · | · | -17 | -76
GIV Gai3 FP | 76* | 97 | 108 | 104 | 91 | 119 | · | 80*
GIV Gai FP conf | 54 | · | · | · | 65 | · | · | 45*
GIV Gai AS conf | 5972* | · | · | · | 47508 | · | · | 83504

[25] NC1=NC(=O)/C(=C/c2cccs2)S1
[26] CCCC(=O)N(Cc1nc2nc(C)cc(C)n2n1)c1ccccc1
[27] Cc1cc(C)n2nc(CN(C(=O)CC(C)C)c3ccccc3)nc2n1
[28] CN(CCCC(=O)O)S(=O)(=O)c1ccc2c(c1)Cc1cc(S(=O)(=O)N(C)CCCC(=O)O)ccc1-2
[29] CCCCN(C)S(=O)(=O)c1ccc2c(c1)CC(C)N2C(C)=O (stereo not drawn)
[30] COc1ccc(CN(C)Cn2c(=S)oc3ccccc32)cc1
[31] Cn1nnnc1SCC(=O)NC1Cc2ccccc2C1
[32] CC(NC(=O)CSc1nnnn1C)c1ccccc1 (stereo not drawn)

Screen / compound no. | 25 | 26 | 27 | 28 | 29 | 30 | 31 | 32
HCMV NEC inh | -63 | -3 | 4 | · | -17 | -12 | -12 | -3
GIV Gai3 FP | 106 | 108 | 92 | 83* | 100 | · | 87 | ·
GIV Gai FP conf | · | · | 71 | 50* | · | · | 69 | ·
GIV Gai AS conf | · | · | 35999 | 26370* | · | · | 47713 | ·

[33] CC1(NCC(=O)N2CCN(S(=O)(=O)c3ccc4ccccc4c3)CC2)CCS(=O)(=O)C1 (stereo not drawn)
[34] COc1cc(/C=N/c2c(-c3ccc(O)c(OC)c3)nc3ccccn23)ccc1O
[35] COc1cc(-c2nc3ccccn3c2N)ccc1O
[36] Cn1c(=O)c(=O)n(C)c2cc(Oc3ccccc3)c(NS(=O)(=O)c3ccc(Cl)cc3)cc21
[37] COc1ccc(C2(Cc3nc4ccccc4[nH]3)C(=O)c3ccccc3C2=O)cc1
[38] COc1ccc(NC(=O)c2sc3nc4c(c(-c5ccco5)c3c2N)CCCCC4)cc1
[39] COc1ccc(NC(=O)c2sc3nc4c(c(-c5ccco5)c3c2N)CCCC4)cc1

Screen / compound no. | 33 | 34 | 35 | 36 | 37 | 38 | 39
HCMV NEC inh | -18 | -51 | 94* | -44 | -11 | · | ·
GIV Gai3 FP | · | · | 24* | 98 | · | 106 | 84*
GIV Gai FP conf | · | · | 51 | · | · | · | 65
GIV Gai AS conf | · | · | 18629* | · | · | · | 55254
